Assay results reported in PubChem BioAssay AID526 (National Center for Advancing Translational Sciences (NCATS), 2006).
This is one part of the list. Calls of active or inactive are those of the source. Calls come from the whole dose curve; as a rule, active = well fitted activation curve with a large enough effect (not every such curve was filed as active); inconclusive = small, poorly fitted or top-dose-only effect, or another doubt; inactive = no such curve, though single readings can be large or run the other way.

Assay: Ubiquitin-GFP Assay
Conditions: Ubiquitin-GFP reporter cells, proteasome inhibition, GFP fluorescence, untreated = 0%, 10 µM MG-132 = 100%; at 45.9 µM (top of the series) unless noted
Excerpt: NIH Chemical Genomics Center [NCGC]
NIH Molecular Libraries Screening Centers Network [MLSCN]
The ubiquitin-proteasome pathway is present within all eukaryotic cells and plays roles in normal cellular functions and disease-related dysfunction. Proteins are tagged with a poly-ubiquitin chain that targets them for the proteasome, a multimeric protease, that degrades the protein into peptides and free ubiquitin. The proteasome has a key role in regulating cell cycle and growth and is known to control the levels of cyclins and CDK inhibitors as well as tumor suppressor proteins. Additionally, the activation of NF- B is controlled by ubiquitin-labeling and degradation of the inhibitory protein I B . […] With this in mind, proteasome inhibitors such as MG-132 and PS-341 have been used to inhibit tumor cell growth.
A cellular assay for ubiquitin-proteasome function was used to find chemical probes of this pathway. The assay used an ubiquitin-GFP construct expressed in U2OS cells (BioImage). Under basal conditions little GFP can be detected as it is degraded by the proteasome. However, treatment of the cells with a proteasome inhibitor such as MG-132 results in a rise in GFP levels that can be detected in as little as four hours. We used the Acumen-Explorer laser plate cytometer having a 488 nm laser as an excitation light source to detect the GFP. Compounds were screened in 1536-well plates using qHTS with a concentration-titration series range that varied from 46 uM to 2.9 nM.
NCGC Assay Protocol Summary:
Cells (U20S ps 2042) expressing ubiquitin (G76V-GFP) were maintained in DMEM with Glutamax-1 and high glucose, 10% FBS, 1% (v/v) penicillin-streptomycin, 0.5 mg/mL Geneticin (G418). The cells were seeded in 1536-well plates using a solenoid-based dispenser at 700 cells/5ul in DMEM medium with Glutamax-1 and high glucose containing 0.5% FBS, w/o phenol red, 25 mM HEPES. The plates were incubated at 37 °C/5% CO2 overnight. Then 23 nl of MG-132 in DMSO was added to the control wells at a final concentration of 10 uM. Next, 23 nL of library compounds in DMSO were added to the sample wells. The plates were incubated for 4 hrs at 37 °C/5% CO2. Following this incubation the plates were read on the Acumen using a cell object definition of 15 to 100 um in width and depth and a window of Total Intensity of between 77,200 and 2,720,000 FLU to enumerate GFP-expressing cells.
The %Activity was determined from the basal and MG-132 treated control wells. %Activity was determined by normalizing to the difference in signal between basal cells (0% Activity) and cells incubated with 10 uM of the proteasome inhibitor MG-132 (100% Activity). Concentration-response curves were fitted to the signals arising from the GFP fluorescence.
Assay Protocol Summary Table
Sequence Parameter Value Description
2. Time O/N 37C incubation
4. Compound 23 nL Libraries (46 uM to 2.9 nM)
5. Time 4 hr 37C incubation
6. Detector Acumen Total Intensity, GFP fluorescence (488 ex/515 em)
Keywords: NIH Roadmap, MLSCN, MLI, MLSMR, BioImage, proteasome, ubiquitin-GFP, qHTS, NCGC

Row | Structure (SMILES) | activation (GFP accumulation)
1 | Cc1ccc(C)c(NP(C)(=O)Oc2ccccc2)c1 (centres undefined) | inactive: -8.33%
2 | Cc1nc2ccc3ccccc3c2s1.O=[N+]([O-])c1cc([N+](=O)[O-])c(O)c([N+](=O)[O-])c1 | inactive: 8.51%
3 | CP(=O)(NC(=O)Nc1ccccc1)Oc1ccccc1 (centres undefined) | inactive: 0.862%
4 | CCOP(C)(=S)SCC(=O)NC(C)C(=O)O (centres undefined) | inactive: -6.25%
5 | N1=C(c2nnc(-c3nn[nH]n3)nn2)NNN1 | inactive: -1.45% [at 9.17 µM]
6 | Cc1ccc(NP(C)(=O)Oc2ccccc2)c(C)c1 (centres undefined) | inactive: 15.4%
7 | COc1ccccc1OP(C)(=O)Nc1ccc(C)cc1 (centres undefined) | inactive: -0.811%
8 | CP(=O)(Nc1ccccn1)Oc1ccccc1 (centres undefined) | inactive: 6.83%
9 | COc1ccccc1OP(C)(=O)Nc1ccc(C)c(C)c1 (centres undefined) | inactive: -0.575%
10 | Cc1nc2ccc3ccccc3c2o1.O=[N+]([O-])c1cc([N+](=O)[O-])c(O)c([N+](=O)[O-])c1 | inactive: 1.16%
11 | C/C1=C2N=C(/C=C3N=C(/C(C)=C4\[N-][C@@](C)([C@H]5N=C1[C@@](C)(CCC(=O)NC[C@H](C)OP(=O)([O-])O[C@@H]1[C@H](O)[C@H](n6cnc7cc(C)c(C)cc76)O[C@@H]1CO)[C@@H]5CC(N)=O)[C@](C)(CC(N)=O)[C@H]4CCC(N)=O)[C@@](C)(CC(N)=O)[C@@H]\3CCC(N)=O)C(C)(C)[C@@H]/2CCC(N)=O.[C-]#N.[Co+3] | inactive: -7.53% [at 20.5 µM]
12 | N#[O+].[C-]#N.[C-]#N.[C-]#N.[C-]#N.[C-]#N.[Fe+2].[Na+].[Na+] | inactive: 1.69%
13 | CP(=O)(Oc1ccccc1)N1CCOC1=O (centres undefined) | inactive: 11%
14 | COc1ccccc1OP(C)(=O)Nc1c(C)n(C)n(-c2ccccc2)c1=O (centres undefined) | inactive: 0%
15 | CCOP(C)(=S)SCC(=O)NC(C)(CC)C(=O)O (centres undefined) | inactive: -4.5%
16 | CP(=O)(Nc1ccc2c(c1)OCCO2)Oc1ccccc1 (centres undefined) | inactive: -0.0621%
17 | NNC(NN)NN.n1nc(-c2nn[nH]n2)n[nH]1 | inactive: -7.03% [at 9.17 µM]
18 | CN(C)CCOC(=O)C(O)(c1ccccc1)C1CCCCC1 (centres undefined) | inactive: -2.56%
19 | CP(=O)(Nc1ccccc1F)Oc1ccccc1 (centres undefined) | inactive: 0.64%
